Experimental data published in article PMC3131519 (Frontiers in Microbiology, 2011).

What was measured:
red blood cells = details: 100 μg/ml peptide; ref de Latour et al., 2010; Dean et al., 2011; cited from earlier work
[1] = tested on: P. aeruginosa (ATCC 19429); test: Galleria mellonella infection by P. aeruginosa, treatment survival; type: in vivo; details: 1 × 10^3 CFU P. aeruginosa, single dose 10 μg peptide
[2] = tested on: P. aeruginosa (ATCC 19429) biofilm; test: Biofilm production; type: cell-based, Pseudomonas aeruginosa; details: 1.0, 0.1 and 0.01 μg/ml peptide, TSB (86 mM NaCl), 24 h, 37°C, crystal violet, n = 6

In the case of `CC[C@H](C)[C@H](NC(=O)[C@@H](NC(=O)[C@H](CCCCN)NC(=O)[C@H](CC(C)C)NC(=O)[C@H](CCCCN)NC(=O)[C@H](CCCCN)NC(=O)[C@H](Cc1ccccc1)NC(=O)[C@H](Cc1ccccc1)NC(=O)[C@H](CCCCN)NC(=O)[C@H](CCCCN)NC(=O)[C@H](Cc1ccccc1)NC(=O)[C@H](CCCNC(=N)N)NC(=O)[C@H](CCCCN)NC(=O)[C@H](CCCCN)NC(=O)[C@@H](NC(=O)[C@H](CO)NC(=O)[C@H](CC(N)=O)NC(=O)[C@H](CCCCN)NC(=O)[C@H](CC(C)C)NC(=O)[C@H](CCCCN)NC(=O)[C@H](CCCCN)NC(=O)[C@H](Cc1ccccc1)NC(=O)[C@H](Cc1ccccc1)NC(=O)[C@H](CCCCN)NC(=O)[C@H](CCCCN)NC(=O)[C@H](Cc1ccccc1)NC(=O)[C@H](CCCNC(=N)N)NC(=O)[C@@H](N)CCCCN)C(C)C)C(C)C)C(=O)NCC(=O)N[C@H](C(=O)N[C@H](C(=O)N[C@@H](Cc1ccccc1)C(=O)N1CCC[C@H]1C(=O)N[C@@H](Cc1ccccc1)C(=O)O)[C@@H](C)O)C(C)C` [NA-CATH:ATRA1-ATRA1], the hemolysis (red blood cells) is given as “no significant hemolysis”, the “effectiveness at prolonging survival vs infected control, in words” value [1] is given as “did not improve survival; also recorded: ineffective at prolonging survival” and the “anti-biofilm activity (inhibition of biofilm formation), in words” value [2] is given as “lack of anti-biofilm activity; also recorded: ineffective in inhibiting biofilm formation”.

“Also recorded” adds a separate entry of the source.
